Our source for the inhibition values is ChEMBL document CHEMBL2021819, “CoA Adducts of 4-Oxo-4-Phenylbut-2-enoates: Inhibitors of MenB from the M. tuberculosis Menaquinone Biosynthesis Pathway” (ACS Med Chem Lett, 2011).

The target in the assay is T1, 1,4-dihydroxy-2-naphthoyl-CoA synthase (Mycobacterium tuberculosis) (UniProt P9WNP5).
T1 sequence (whole entry): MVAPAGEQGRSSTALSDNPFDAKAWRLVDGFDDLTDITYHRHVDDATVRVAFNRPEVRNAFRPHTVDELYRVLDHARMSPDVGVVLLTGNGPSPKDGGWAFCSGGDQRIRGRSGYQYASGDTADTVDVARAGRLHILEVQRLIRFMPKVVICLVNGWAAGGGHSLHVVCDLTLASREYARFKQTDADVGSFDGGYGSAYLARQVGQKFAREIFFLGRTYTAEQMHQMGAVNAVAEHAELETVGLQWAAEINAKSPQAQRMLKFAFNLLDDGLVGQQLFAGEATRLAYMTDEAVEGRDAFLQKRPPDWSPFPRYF
The assay can be described thus: Inhibition of Mycobacterium tuberculosis MenB expressed in Escherichia coli BL21 (DE3) assessed as formation of DHNA-CoA from OSB-CoA at 50 uM by enzyme coupled-assay in presence of Escherichia coli MenE. Particulars: tested as the 2H-labelled form.

Calls of active or inactive are those of the source. No cut-off for these calls is given here.

As for `C[C@H](NC(CC(=O)c1ccccc1Cl)C(=O)O)c1ccccc1` (stereo partly specified), the inhibition entry is “Active”.
